The text below walks through data of PubChem BioAssay AID485 (The Scripps Research Institute Molecular Screening Center, 2006).

Sequences of proteins named here, by UniProt entry; tags and fusion partners are left off.
UniProt Q99500, whole entry: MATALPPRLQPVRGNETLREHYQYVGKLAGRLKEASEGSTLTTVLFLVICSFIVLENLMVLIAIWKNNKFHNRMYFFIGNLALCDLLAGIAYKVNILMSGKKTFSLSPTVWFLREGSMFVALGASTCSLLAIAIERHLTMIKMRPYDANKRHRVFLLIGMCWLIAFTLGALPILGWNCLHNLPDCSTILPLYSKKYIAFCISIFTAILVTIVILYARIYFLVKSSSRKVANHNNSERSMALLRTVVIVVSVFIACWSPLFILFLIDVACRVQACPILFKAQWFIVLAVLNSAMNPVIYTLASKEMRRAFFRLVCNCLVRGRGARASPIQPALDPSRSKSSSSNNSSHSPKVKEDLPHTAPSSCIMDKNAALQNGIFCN

The structures appear in SMILES notation. This is a selection; strong and weak results do not stand in their true shares. Calls of active or inactive are those of the source.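 How the source made its calls: active means inhibition above the plate cutoff, the mean inhibition of test wells on that plate plus 3 SD (cut at about 28% in these data); inactive means the rest.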

In this test the target is Sphingosine 1-phosphate receptor 3 (Homo sapiens) (UniProt Q99500). Description: inhibition of S1P-stimulated S1P3 activation – cell-based, primary screen (AID 485).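 Further: cells challenged with S1P at its EC80 of 0.8 µM; blue over green emission ratio from cleaved BLA substrate after 4 h stimulation; 0% = S1P-stimulated wells and 100% = unstimulated DMSO-only wells.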 Conditions: CHO S1P3 NFAT-BLA reporter, FRET fluorescence, antagonist mode; at 4.98 µM; active compounds read high.
A word on the inhibition: it is the relative decrease from the control value, in per cent. Turning to `O=[As](O)(c1ccccc1Br)c1ccccc1Br`, the inhibition is inactive: -16.1%.
